Test results reported in ChEMBL document CHEMBL1127849, “Benzisoxazole- and benzisothiazole-3-carboxamides as potential atypical antipsychotic agents” (J Med Chem, 1994).

Chains of the proteins cited; added tags and fusions are not shown.
UniProt P14842, whole entry: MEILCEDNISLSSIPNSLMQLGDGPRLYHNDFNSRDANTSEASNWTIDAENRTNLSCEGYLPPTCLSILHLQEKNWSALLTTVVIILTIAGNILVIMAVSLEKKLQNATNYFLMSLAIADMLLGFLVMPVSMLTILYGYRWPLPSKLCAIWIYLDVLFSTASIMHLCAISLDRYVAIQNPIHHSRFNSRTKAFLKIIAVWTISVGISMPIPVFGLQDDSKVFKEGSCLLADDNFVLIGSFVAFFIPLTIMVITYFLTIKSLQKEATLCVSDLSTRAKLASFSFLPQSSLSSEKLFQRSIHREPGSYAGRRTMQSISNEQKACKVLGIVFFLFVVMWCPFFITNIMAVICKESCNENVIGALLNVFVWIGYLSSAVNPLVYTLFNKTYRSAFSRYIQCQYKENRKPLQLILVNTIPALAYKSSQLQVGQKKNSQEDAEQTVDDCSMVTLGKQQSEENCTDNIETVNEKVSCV

Target: 5-hydroxytryptamine receptor 2A (Rattus norvegicus, UniProt P14842)
Assay: In vitro affinity towards 5-hydroxytryptamine 2A receptor using [3H]spiroperidol as radioligand in cortex

With COc1ccccc1N1CCN(CCCCN(C)C(=O)c2nsc3ccccc23)CC1 the IC50 was 125 nM.
